Measurements published in patent US20240374738A1, “BIFUNCTIONAL COMPOUND CAPABLE OF DEGRADING RECEPTOR TYROSINE KINASE AND APPLICATION THEREOF” (TAIBIDI PHARMACEUTICAL TECHNOLOGY (SHIJIAZHUANG) CO., LTD., priority 2023, published 2024).

Chains of the proteins cited; added tags and fusions are not shown. Residues count along the entry.
UniProt Q08345, 19-913 limits assumed: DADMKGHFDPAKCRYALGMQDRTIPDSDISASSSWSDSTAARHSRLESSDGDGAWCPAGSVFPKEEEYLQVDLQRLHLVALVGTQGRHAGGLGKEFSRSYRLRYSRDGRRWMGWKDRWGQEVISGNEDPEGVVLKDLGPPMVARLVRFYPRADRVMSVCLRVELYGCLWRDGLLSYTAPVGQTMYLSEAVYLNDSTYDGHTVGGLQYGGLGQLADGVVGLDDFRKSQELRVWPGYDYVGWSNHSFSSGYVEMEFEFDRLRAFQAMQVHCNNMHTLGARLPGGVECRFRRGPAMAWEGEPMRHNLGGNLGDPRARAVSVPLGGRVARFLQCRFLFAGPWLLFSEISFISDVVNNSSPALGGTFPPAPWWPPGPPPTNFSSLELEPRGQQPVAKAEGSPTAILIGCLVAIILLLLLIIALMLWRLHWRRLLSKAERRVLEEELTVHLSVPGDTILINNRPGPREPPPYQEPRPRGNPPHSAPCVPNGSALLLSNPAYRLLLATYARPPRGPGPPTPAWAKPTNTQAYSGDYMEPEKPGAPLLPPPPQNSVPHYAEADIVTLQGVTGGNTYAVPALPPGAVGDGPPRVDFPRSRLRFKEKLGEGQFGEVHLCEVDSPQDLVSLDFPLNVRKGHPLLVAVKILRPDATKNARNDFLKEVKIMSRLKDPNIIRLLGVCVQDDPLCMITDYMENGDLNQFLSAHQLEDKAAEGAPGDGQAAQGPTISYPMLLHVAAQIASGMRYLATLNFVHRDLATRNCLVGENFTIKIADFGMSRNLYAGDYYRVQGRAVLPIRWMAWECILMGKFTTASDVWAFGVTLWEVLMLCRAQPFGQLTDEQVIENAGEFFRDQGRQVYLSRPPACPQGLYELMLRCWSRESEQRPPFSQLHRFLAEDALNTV

Tests used:
[1] = test system: SNU5; experiment: Growth inhibition of gastric cancer cells SNU5 (CCK-8); conditions: read-out: IC50-SNU5, half inhibitory concentration, 72 hours
Protocol: (§1) Inoculate gastric cancer cells (SNU5 or MKN45) into a 96 well plate at a concentration of […], with 100 μl added to each well. Incubate for 30 minutes. Observe the cell status under a microscope. Prepare compounds, weigh a certain amount of the series compounds or reference drug cabozantinib of this patent, first prepare a high concentration mother liquor with pure DMSO, and use gradient dilution method to prepare a concentration of 200 μM, 60 μM, 20 μM, 6 μM, 2 μM, 600 nM, 200 nM, 0 nM drug solution, shake to make it fully mixed. The control group was prepared with cabozantinib using the same solvent and method.
(§2) After preparation, add 1 μl of drug solution to each well of the 96 well plate, and then add 100 μl of culture medium. Repeat each dose three times. Gently shake to allow the cells and medication to come into full contact and incubate in the incubator for 72 hours. 72 hours later, remove and color with CCK-8 reagent kit. Add 20 μl of CCK-8 reagent to each well, gently shake well, and incubate in the incubator for 1 hour. After 1 hour, remove and measure the absorbance of each well using an enzyme-linked immunosorbent assay (ELISA) reader at a wavelength of 450 nm.
(§3) According to the formula: Cell growth inhibition rate=[1−(absorbance of experimental group absorbance of culture medium control group)/(absorbance of blank control group−absorbance of culture medium control group)]×100%. It can be concluded that the compound has the ability to inhibit the growth of gastric cancer cells at the current dose and time.
(§4) Draw a graph based on the gradient of concentration and use GraphPad Prism 9 software (GraphPad Software, La Jolla, CA) to calculate the maximum inhibitory concentration (IC50) at 50%.
(§5) Referring to steps 1 and 2 of this embodiment, the inhibitory effect of the compound of the present invention on the growth of cancer cells and the degradation effect of target proteins were measured, and the following results were obtained (see Table 2 below).
(§6) The growth inhibitory effects of the compound of the present invention on tumor cell lines MKN45 and SNU5 were measured. The activity is expressed as half inhibitory concentration (C50). The results are shown in Table 2 below; When the half inhibitory concentration is less than or equal to 100 nM, the compound activity is labeled as “++++”; When the half inhibitory concentration is greater than 100 nM and less than 500 nM, the compound activity is labeled as […] and less than 1000 nM, the compound activity is labeled as “++”; When the half inhibitory concentration is greater than 1000 nM and less than 3000 nM, the compound activity is marked as “+”; When the half inhibitory concentration is greater than 3000 nM, the compound activity is marked as […]

[2] = biological target: DDR1 (Homo sapiens, UniProt Q08345); experiment: Degradation of DDR1 in tumor cell MKN45 (Western blot); conditions: maximum degradation percentage, MKN45 cells, 24 hours
[3] = test system: MKN45; experiment: Growth inhibition of gastric cancer cells MKN45 (CCK-8); conditions: read-out: IC50-MKN45, half inhibitory concentration, 72 hours
Protocol: as §1, §2, §3, §4, §5, §6

Row | IC50 [1] [nM] | IC50 [3] [nM] | SMILES | Dmax-DDR1 [2]
1 | 1000 to 3000 | 1000 to 3000 | COc1cc2c(Oc3ccc(NC(=O)C4(C(=O)Nc5ccc(F)cc5)CC4)cc3)ccnc2cc1N1CCC(N2CCC(C(=O)NCCCC(=O)N[C@H](C(=O)N3C[C@H](O)C[C@H]3C(=O)NCc3ccc(-c4scnc4C)cc3)C(C)(C)C)CC2)CC1 | ++++ (When the maximum degradation percentage is greater than or equal to 85%)
2 | < 100 | < 100 | O=C1CCC(N2Cc3cc(/C=C/CCN4CC5CC(C4)N5CC4CCN(c5cc6nccc(Oc7ccc(NC(=O)C8(C(=O)Nc9ccc(F)cc9)CC8)cc7)c6cc5F)CC4)ncc3C2=O)C(=O)N1 (centres unmarked) | –
3 | 100 to 500 | 100 to 500 | COc1cc2c(Oc3ccc(NC(=O)C4(C(=O)Nc5ccc(F)cc5)CC4)cc3)ccnc2cc1N1CCC(CN2CCC(OCCC(=O)N[C@H](C(=O)N3C[C@H](O)C[C@H]3C(=O)NCc3ccc(-c4scnc4C)cc3)C(C)(C)C)CC2)CC1 | –
4 | < 100 | < 100 | COc1cc2c(Oc3ccc(NC(=O)C4(C(=O)Nc5ccc(F)cc5)CC4)cc3)ccnc2cc1N1CCC(CN2CCN(CCNc3cccc4c3CN(C3CCC(=O)NC3=O)C4=O)CC2)CC1 (centres unmarked) | –
5 | 100 to 500 | < 100 | COc1cc2c(Oc3ccc(NC(=O)C4(C(=O)Nc5ccc(F)cc5)CC4)cc3)ccnc2cc1CNC(=O)C1CCN(CC2CCN(c3ccc4c(c3)C(=O)N(C3CCC(=O)NC3=O)C4=O)CC2)CC1 (centres unmarked) | –
6 | 100 to 500 | 100 to 500 | COc1cc2c(Oc3ccc(NC(=O)C4(C(=O)Nc5ccc(F)cc5)CC4)cc3)ccnc2cc1N1CCC(CN2CC(C(=O)N[C@H](C(=O)N3C[C@H](O)C[C@H]3C(=O)NCc3ccc(-c4scnc4C)cc3)C(C)(C)C)C2)CC1 | ++ (When the maximum degradation percentage is greater than 75% and less than 85%)
7 | < 100 | < 100 | O=C1CCC(N2Cc3cc(/C=C\CCN4CC5CC(C4)N5CC4CCN(c5cc6nccc(Oc7ccc(NC(=O)C8(C(=O)Nc9ccc(F)cc9)CC8)cc7)c6cc5F)CC4)ncc3C2=O)C(=O)N1 (centres unmarked) | ++ (When the maximum degradation percentage is greater than 75% and less than 85%)
8 | < 100 | < 100 | O=C1CCC(N2Cc3cc(NC(=O)CCN4C[C@@H]5C[C@H]4CN5CC4CCN(c5cc6nccc(Oc7ccc(NC(=O)C8(C(=O)Nc9ccc(F)cc9)CC8)cc7)c6cc5F)CC4)ncc3C2=O)C(=O)N1 (some centres unmarked) | ++ (When the maximum degradation percentage is greater than 75% and less than 85%)
9 | < 100 | < 100 | COc1cc2c(Oc3ccc(NC(=O)C4(C(=O)Nc5ccc(F)cc5)CC4)cc3)ccnc2cc1N1CCC(CN2CCN(CC(=O)N[C@H](C(=O)N3C[C@H](O)C[C@H]3C(=O)NCc3ccc(-c4scnc4C)cc3)C(C)(C)C)CC2)CC1 | ++ (When the maximum degradation percentage is greater than 75% and less than 85%)

Row | SMILES | IC50 [1] [nM] | IC50 [3] [nM] | Dmax-DDR1 [2]
10 | COc1cc2c(Oc3ccc(NC(=O)C4(C(=O)Nc5ccc(F)cc5)CC4)cc3)ccnc2cc1N1CCC(CN2CC3CC(C2)N3CCC(=O)Nc2cc3c(cn2)C(=O)N(C2CCC(=O)NC2=O)C3)CC1 (centres unmarked) | < 100 | < 100 | ++ (When the maximum degradation percentage is greater than 75% and less than 85%)
